Measurements published in patent US11028072B2, “2,4-diamino-6-ethylpyrimidine derivatives with antimalarial activities against Plasmodium falciparum” (National Science and Technology Development Agency, priority 2015, dated 2021).

Protein sequences, listed by entry. Tags and fused reporters are not part of them.
UniProt P13922, whole entry N51I/I164L: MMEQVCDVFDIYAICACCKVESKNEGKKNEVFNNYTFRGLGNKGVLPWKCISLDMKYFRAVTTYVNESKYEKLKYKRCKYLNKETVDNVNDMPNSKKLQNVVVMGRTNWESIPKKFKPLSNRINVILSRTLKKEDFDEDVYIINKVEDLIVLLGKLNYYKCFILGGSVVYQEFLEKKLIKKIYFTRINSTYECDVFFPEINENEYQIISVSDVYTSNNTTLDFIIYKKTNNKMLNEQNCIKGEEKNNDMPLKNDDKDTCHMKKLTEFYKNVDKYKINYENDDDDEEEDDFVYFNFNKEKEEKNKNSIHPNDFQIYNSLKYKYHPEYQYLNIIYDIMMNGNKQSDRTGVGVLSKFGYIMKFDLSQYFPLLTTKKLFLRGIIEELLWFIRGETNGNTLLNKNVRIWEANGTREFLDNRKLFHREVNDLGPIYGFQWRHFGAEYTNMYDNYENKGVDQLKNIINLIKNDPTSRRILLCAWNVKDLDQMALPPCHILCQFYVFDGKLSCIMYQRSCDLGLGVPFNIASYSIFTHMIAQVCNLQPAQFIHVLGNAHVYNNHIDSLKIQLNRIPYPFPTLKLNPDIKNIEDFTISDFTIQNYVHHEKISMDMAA

Assays:
[1] = test system: Human dihydrofolate reductase (hDHFR); assay: Inhibition of human dihydrofolate reductase (Ki); type: biochemical; conditions: Ki hDHFR divided by Ki quadruple mutant pfDHFR
Vero cells = conditions: IC50 Vero cells divided by IC50 V1/S
Description: In Vitro Antimalarial Activites Against P. falciparum and Cytotoxicity Towards Mammalian Cells (Vero Cells)

[2] = target: quadruple mutant N51I + C59R + S108N + I164L (QM) pfDHFR (Plasmodium falciparum, UniProt P13922, I164L/N51I); assay: Inhibition of quadruple mutant pfDHFR (Ki); type: biochemical
Protocol: The synthesized 2,4-diamino-6-ethylpyrimdine derivatives as the hydrochloride salts were tested for the activities against Plasmodium falciparum (P. falciparum) according to the standard methods. These include the inhibition of dihydrofolate reductase (DHFR) enzymes of P. falciparum including, wild type (WT) and quadruple mutants (N51IC59RS108NI164L) (QM). The inhibition was expressed as inhibition constants (Ki) in nano molar (nM).

Row | Structure (SMILES) | Selectivity ratio of Ki hDHFR/Ki QM [1] | Selectivity ratio (IC50 ratio) Vero/V1/S (Vero cells) | Ki [2] [µM]
1 | CCc1nc(N)nc(N)c1OCc1cc(-c2ccc(Br)cc2)no1 [Compound 36] | 20.85 | >1.43 | –
2 | CCc1nc(N)nc(N)c1OCc1cc(-c2cccc(C(F)(F)F)c2)no1 [Compound 37] | >942.86 | 1.83 | –
3 | CCc1nc(N)nc(N)c1OCc1cc(-c2cccc([N+](=O)[O-])c2)no1 [Compound 39] | >2040.39 | >5.51 | –
4 | CCc1nc(N)nc(N)c1OCc1cc(-c2cccc(C(=O)O)c2)no1 [Compound 40] | 131.89 | >14.79 | –
5 | CCc1nc(N)nc(N)c1OCc1cc(-c2ccc(C(F)(F)F)cc2)no1 [Compound 41] | >316.16 | – | 0.316 ± 0.0623
6 | CCc1nc(N)nc(N)c1OCCCc1cc(-c2ccc(Cl)cc2)no1 [Compound 45] | 9.50 | >7.85 | –
7 | CCc1nc(N)nc(N)c1OCCCc1cc(-c2cccc(C(F)(F)F)c2)no1 [Compound 46] | 15.01 | 0.59 | –
8 | CCc1nc(N)nc(N)c1OCCCc1cc(-c2cccc(C#N)c2)no1 [Compound 47] | 21.03 | 0.10 | –
9 | CCc1nc(N)nc(N)c1OCCCc1cc(-c2cccc(C(=O)OC)c2)no1 [Compound 48] | 28.95 | 7.60 | –
10 | CCc1nc(N)nc(N)c1OCCCc1cc(-c2cccc(C(=O)O)c2)no1.Cl [Compound 49, 2,4-diamino-6-ethyl-5-(3-(3-(3-(carboxy)phenyl)isoxazol-5-yl)propoxy)pyrimidine Hydrochloride] | 43.59 | >1052.63 | –
11 | CCc1nc(N)nc(N)c1OCc1coc(-c2ccccc2)n1 [Compound 50] | 5.25 | >3.65 | –
12 | CCc1nc(N)nc(N)c1OCc1coc(-c2cccc(C)c2)n1 [Compound 51] | 5.34 | 3.47 | –
13 | CCc1nc(N)nc(N)c1OCc1coc(-c2cccc([N+](=O)[O-])c2)n1 [Compound 52] | >1073.42 | >3.31 | –
14 | CCc1nc(N)nc(N)c1OCc1coc(-c2ccc(OCC(=O)OCc3ccccc3)cc2)n1 [Compound 56] | >2139.49 | >4.29 | –
15 | CCc1nc(N)nc(N)c1OCCc1coc(-c2ccccc2)n1 [Compound 58] | 4.41 | 0.11 | –
16 | CCc1nc(N)nc(N)c1OCc1csc(-c2ccccc2)n1 [Compound 60] | 7.10 | >2.40 | –
17 | CCc1nc(N)nc(N)c1OCc1csc(-c2cccc(C)c2)n1 [Compound 61] | 3.49 | 1.74 | –
18 | CCc1nc(N)nc(N)c1OCc1csc(-c2cccc([N+](=O)[O-])c2)n1 [Compound 62] | 2.51 | 4.50 | –
19 | CCc1nc(N)nc(N)c1OCc1csc(-c2ccc(C)cc2)n1 [Compound 67] | >3657.64 | 1.52 | –
20 | CCc1nc(N)nc(N)c1OCc1csc(-c2ccc(OC)cc2)n1 [Compound 68] | 11.57 | 3.37 | –
21 | CCc1nc(N)nc(N)c1OCc1csc(-c2ccc(Cl)cc2)n1 [Compound 70] | 9.46 | 2.61 | –
22 | CCc1nc(N)nc(N)c1OCc1csc(-c2ccc(Br)cc2)n1 [Compound 71] | 8.36 | >1.34 | –
23 | CCc1nc(N)nc(N)c1OCc1csc(-c2ccc(C(=O)OC)cc2)n1 [Compound 74] | 13.15 | >3.15 | –
24 | CCc1nc(N)nc(N)c1OCCc1csc(-c2ccccc2)n1 [Compound 76] | 2.88 | 0.075 | –
